# B1: CHO cell sialidase: sialidase purified from cell culture fluid of CHO 14.16 Chinese hamster ovary cells (protein)
# chain: MATCPVLQKETLFQTGDYAYRIPALIYLSKQKTLLAFAEKRLTKTDEHADLFVLRRGSYNADTHQVQWQAEEVVTQAYLEGHRSMSPCPLYDKQTRTLFLFFIAVRGQISEHHQLQTGVNVTRLCHITSTDHGKTWSAVQDLTDTTIGSTHQDWATFGVGPGHCLQLRNTAGSLLVPAYAYRKQPPIHAPAPSAFCFLSHDHGSTWELGHFVSQNSLECQVAEVGTGAERVVYLNARSCLGARVQAQSPNSGLDFQDNQVVSKLVEPPKGCHGSVIAFPNPTSKADALDVWLLYTHPTDSRKRTNLGVYLNQKPLDPTTWSAPTLLATGICAYSDLQNMGHGPDGSPQFGCLYESNNYEEIVFLMFTLKQAFPAVFGAQ
# How the values were obtained:
# [1] = Enzyme activity dependence on pH; format: biochemical, Chinese hamster; settings: purified enzyme, 4-MU-Neu5Ac as substrate
# Method: FIG. 4: Enzyme activity dependence on pH. Assays were carried out with either the purified enzyme) solid filled points or crude cell lysates (clear points) using 4-MU-Neu5Ac as substrate (see Methods). Phosphate buffer: squares. Acetate buffer: triangles.
# A similar result is obtained when the enzyme is assayed in crude cell homogenates, except that the level of activity in the acidic range, pH 3.5-4.5 is slightly greater than with the purified enzyme, FIG. 4. We assume that this activity is due to the presence of the lysosomal sialidase in the crude homogenate which has a pH optimum in the acidic region [Warner et al. Biochemistry, 18:2783 (1979)].
# [2] = Stability of the purified sialidase preparation; format: physicochemical
# Method: The protein is stable during purification and the fractions are stored frozen at −20° C. between purification steps when necessary. […] Even when 20% glycerol is included, about 15% of the activity is lost upon a single freeze thaw cycle.
molecule,measurement,setting,value
B1,pH optimum,[1],~5.9 pH
same,activity lost upon a single freeze thaw cycle,[2]; final preparation with 20% glycerol,about 15%
same,stability when stored frozen,[2]; −70° C.,three
